From article PMC11840601, “Single Amino Acid Changes Impact the Ability of Drosophila melanogaster Cecropins to Inhibit Growth of Providencia Pathogens” (ACS Omega, 2025)

Key:
P. sneebia = format: cell-based, Providencia sneebia; settings: broth microdilution, 96-well, Mueller Hinton broth, 25 °C, 16 h, OD600, peptide 64-1 or 128-2 μM
Method: (§1) Each cecropin was tested for its ability to inhibit the growth of Providencia bacterial species, strains that were previously isolated from D. melanogaster.[31] […] Therefore, we hypothesized the virulence of Providencia species may be partially due to differing susceptibility to cecropins. Experiments were conducted at 25 °C (Table 2), which is the temperature at which D. melanogaster are typically housed and likely reflects the temperature of bacterial growth in vivo as fruit flies are poikilotherms. […] Bacteria were determined to be in the log phase of growth when assays were started (Figure S3). P. burhodogranarieaB and P. burhodogranarieaD were the most susceptible to growth inhibition by all three native cecropin peptides (Table 2), which is unsurprising, given their low virulence and ability of D. melanogaster to sometimes clear infection by these bacteria.[32]P. sneebia, P. alcalifaciens, and P. rettgeri were more resistant to all three cecropins, with no growth inhibition observed against P. alcalifaciens in any condition.
(§2) For all antimicrobial testing, bacteria were cultured in order to obtain cells in their exponential growth phase. Liquid bacterial cultures were inoculated from a single bacterial colony on a streaked LB agar plate. Cultures were grown overnight in Mueller Hinton (MH) broth in an orbital shaker at 150 rpm for 16 h at 25 °C. The optical density (Absorbance600 nm) of overnight cultures were determined using a spectrophotometer (SmartSpec Plus, Bio-Rad, USA or Wireless Spectrometer (Vis), PASCO, USA). The overnight culture was then diluted to an optical density of 0.002 in M–H broth and incubated at 25 °C with shaking (150 rpm). Bacterial growth curves were determined experimentally for each bacterial species and at each temperature (Figure S4). Subcultures were grown for 5 h to ensure that each subculture was in its logarithmic growth phase and at a culture density above 0.1 Abs600 nm. After growth of the subculture for the designated time, the optical density was again measured and the bacterial culture was diluted to 0.002 Abs600 nm (∼2 × 10^6 CFU/mL) in M–H broth for use in subsequent assays.
(§3) The MIC for each peptide was determined using microdilution antimicrobial testing in 96-well plates. Peptide stocks were prepared at 1.28 mM in water and diluted to the desired concentration using M–H broth. A serial dilution was performed, with final peptide concentrations ranging from 64–1 μM or 128–2 μM on each plate. The plate was incubated on an orbital shaker (150 rpm) at 25 °C for 16 h. Growth inhibition was determined by measuring the optical density at 600 nm using a BioTek Synergy H1Microplate Reader. The MIC was determined to be the lowest concentration of peptide where there was no detectable difference in optical density when compared to wells lacking bacteria.

P. rettgeri = format: cell-based, Providencia rettgeri; settings: broth microdilution, 96-well, Mueller Hinton broth, 25 °C, 16 h, OD600, peptide 64-1 or 128-2 μM
Method: as §1, §2, §3

P. burhodogranarieaB [1] = format: cell-based, Providencia burhodogranarieaB; settings: broth microdilution, 96-well, Mueller Hinton broth, 25 °C, 16 h, OD600, peptide 64-1 or 128-2 μM
Method: as §1, §2, §3

P. alcalifaciens = format: cell-based, Providencia alcalifaciens; settings: broth microdilution, 96-well, Mueller Hinton broth, 25 °C, 16 h, OD600, peptide 64-1 μM
Method: as §1
For all antimicrobial testing, bacteria were cultured in order to obtain cells in their exponential growth phase. […] The optical density (Absorbance600 nm) of overnight cultures were determined using a spectrophotometer (SmartSpec Plus, Bio-Rad, USA or Wireless Spectrometer (Vis), PASCO, USA). […] Bacterial growth curves were determined experimentally for each bacterial species and at each temperature (Figure S4). […] After growth of the subculture for the designated time, the optical density was again measured and the bacterial culture was diluted to 0.002 Abs600 nm (∼2 × 10^6 CFU/mL) in M–H broth for use in subsequent assays.
The MIC for each peptide was determined using microdilution antimicrobial testing in 96-well plates. […] Growth inhibition was determined by measuring the optical density at 600 nm using a BioTek Synergy H1Microplate Reader. The MIC was determined to be the lowest concentration of peptide where there was no detectable difference in optical density when compared to wells lacking bacteria.

P. burhodogranarieaD [2] = format: cell-based, Providencia burhodogranarieaD; settings: broth microdilution, 96-well, Mueller Hinton broth, 25 °C, 16 h, OD600, peptide 64-1 or 128-2 μM
Method: as §1, §2, §3

P. burhodogranarieaB [3] = assay: Propidium iodide permeability assay by flow cytometry; format: cell-based, Providencia burhodogranarieaB; settings: after 20 min, 128 μM peptide (below the MIC)
Method: (§4) First, to assess permeability of the bacterial cells post-treatment, we used propidium iodide (PI), a dye that fluoresces when bound to DNA but is impermeable to intact cell membranes. Cells were analyzed by flow cytometry after various concentrations of an AMP were added to a bacterial culture; increasing cell fluorescence was indicative of a loss of membrane integrity, allowing PI to access the DNA within the bacterial cell (Figure 3). […] To directly assess the ability of bacterial cells to replicate and divide post-treatment, bacterial cultures were plated at various times after the addition of AMP. […] These experiments were performed using peptide concentrations at the previously determined MIC for each peptide-bacteria pair (Table 2).
(§5) Samples were prepared containing 5 μg/mL propidium iodide (PI) in MH broth. The cells were assessed by flow cytometry using a Millipore Guava easyCyte 8 at 0, 1, 3, 5, 7, 9, 11, 13, 15, and 20 min post-treatment and were incubated at 25 °C between measurements. […] Data processing was performed using OMIQ. Briefly, gates were set based on the initial scattering profiles of cells. A threshold was determined for red fluorescence; cells above that threshold were determined to be permeable. Gates and thresholds were applied consistently to each sample.
(§6) The number of total cells dropped over time for many samples due to peptide treatment, and the number of total cells at each time-point were scaled to the number of cells at 0 min. The number of destroyed or “missing” cells was determined by calculating the number of permeable and impermeable cells present at a given time, and subtracting those values from the total number of cells at 0 min.

P. burhodogranarieaD [4] = assay: as above; format: cell-based, Providencia burhodogranarieaD; settings: after 20 min, 128 μM peptide (below the MIC)
Method: as §4, §5, §6

| Structure (SMILES) | Minimum Inhibitory Concentration (P. sneebia) [µM] | Minimum Inhibitory Concentration (P. rettgeri) [µM] | Minimum Inhibitory Concentration (P. burhodogranarieaB [1]) [µM] | Minimum Inhibitory Concentration (P. alcalifaciens) [µM] | Minimum Inhibitory Concentration (P. burhodogranarieaD [2]) [µM] | cells permeable to propidium iodide (P. burhodogranarieaB [3]) | cells permeable to propidium iodide (P. burhodogranarieaD [4]) |
| --- | --- | --- | --- | --- | --- | --- | --- |
| CC[C@H](C)[C@H](NC(=O)CNC(=O)[C@H](CC(C)C)NC(=O)CNC(=O)[C@H](CCC(N)=O)NC(=O)[C@@H](NC(=O)[C@@H](NC(=O)[C@H](C)NC(=O)[C@H](CC(=O)O)NC(=O)[C@H](CCCNC(=N)N)NC(=O)[C@@H](NC(=O)[C@H](Cc1c[nH]cn1)NC(=O)[C@H](CCC(N)=O)NC(=O)CNC(=O)[C@@H](NC(=O)[C@H](CCCNC(=N)N)NC(=O)[C@H](CCC(=O)O)NC(=O)[C@@H](NC(=O)[C@H](CCCCN)NC(=O)[C@H](CCCCN)NC(=O)CNC(=O)[C@H](CC(C)C)NC(=O)[C@H](CCCCN)NC(=O)[C@H](CCCCN)NC(=O)[C@H](CC(C)C)NC(=O)[C@H](Cc1c[nH]c2ccccc12)NC(=O)CN)[C@@H](C)CC)[C@@H](C)CC)[C@@H](C)O)[C@@H](C)O)[C@@H](C)CC)C(=O)N[C@@H](C)C(=O)N[C@@H](CCC(N)=O)C(=O)N[C@@H](CCC(N)=O)C(=O)N[C@@H](C)C(=O)N[C@@H](C)C(=O)N[C@@H](CC(N)=O)C(=O)N[C@H](C(=O)N[C@@H](C)C(=O)N[C@@H](C)C(=O)N[C@H](C(=O)N[C@@H](C)C(=O)N[C@@H](CCCNC(=N)N)C(=O)NCC(N)=O)[C@@H](C)O)C(C)C [CecC] | 64 | >64 | 4 | >64 | 4 | – | – |
| CC[C@H](C)[C@H](NC(=O)CNC(=O)[C@H](CC(C)C)NC(=O)[C@H](CC(=O)O)NC(=O)[C@H](CCC(N)=O)NC(=O)[C@@H](NC(=O)[C@H](CO)NC(=O)[C@H](C)NC(=O)[C@H](CC(=O)O)NC(=O)[C@H](CCCNC(=N)N)NC(=O)[C@@H](NC(=O)[C@H](Cc1c[nH]cn1)NC(=O)[C@H](CCC(N)=O)NC(=O)CNC(=O)[C@@H](NC(=O)[C@H](CCCNC(=N)N)NC(=O)[C@H](CCC(=O)O)NC(=O)[C@@H](NC(=O)[C@H](CCCCN)NC(=O)[C@H](CCCCN)NC(=O)CNC(=O)[C@H](CC(C)C)NC(=O)[C@H](CCCCN)NC(=O)[C@H](CCCNC(=N)N)NC(=O)[C@H](CC(C)C)NC(=O)[C@H](Cc1c[nH]c2ccccc12)NC(=O)CN)[C@@H](C)CC)[C@@H](C)CC)[C@@H](C)O)[C@@H](C)CC)C(=O)N[C@@H](C)C(=O)N[C@@H](CCC(N)=O)C(=O)N[C@@H](CCC(N)=O)C(=O)N[C@@H](C)C(=O)N[C@@H](C)C(=O)N[C@@H](CC(N)=O)C(=O)N[C@H](C(=O)N[C@@H](C)C(=O)N[C@@H](C)C(=O)N[C@H](C(=O)N[C@@H](C)C(=O)N[C@@H](CCCNC(=N)N)C(=O)NCC(N)=O)[C@@H](C)O)C(C)C [CecBD] | >128 | >128 | >128 | – | >128 | less than 30% | less than 30% |
| CC[C@H](C)[C@H](NC(=O)CNC(=O)[C@H](CC(C)C)NC(=O)[C@@H](NC(=O)[C@H](CCC(N)=O)NC(=O)[C@@H](NC(=O)[C@@H](NC(=O)[C@H](C)NC(=O)[C@H](CC(=O)O)NC(=O)[C@H](CCCNC(=N)N)NC(=O)[C@@H](NC(=O)[C@H](Cc1c[nH]cn1)NC(=O)[C@H](CCC(N)=O)NC(=O)CNC(=O)[C@@H](NC(=O)[C@H](CCCNC(=N)N)NC(=O)[C@H](CCC(=O)O)NC(=O)[C@@H](NC(=O)[C@H](CCCCN)NC(=O)[C@H](CCCCN)NC(=O)CNC(=O)[C@@H](NC(=O)[C@H](CCCCN)NC(=O)[C@H](CCCCN)NC(=O)[C@H](CC(C)C)NC(=O)[C@H](Cc1c[nH]c2ccccc12)NC(=O)CN)[C@@H](C)CC)[C@@H](C)CC)C(C)C)[C@@H](C)O)[C@@H](C)O)[C@@H](C)CC)C(C)C)C(=O)N[C@@H](C)C(=O)N[C@@H](CCC(N)=O)C(=O)N[C@@H](CCC(N)=O)C(=O)N[C@@H](C)C(=O)N[C@@H](C)C(=O)N[C@@H](CC(N)=O)C(=O)N[C@H](C(=O)N[C@@H](C)C(=O)N[C@@H](C)C(=O)N[C@H](C(=O)N[C@@H](C)C(=O)N[C@@H](CCCNC(=N)N)C(=O)NCC(N)=O)[C@@H](C)O)C(C)C [CecAV] | 32 | 64 | 4 | – | 2 | – | – |
| CC[C@H](C)[C@H](NC(=O)CNC(=O)[C@H](CC(C)C)NC(=O)CNC(=O)[C@H](CCC(N)=O)NC(=O)[C@@H](NC(=O)[C@H](CO)NC(=O)[C@H](C)NC(=O)[C@H](CC(=O)O)NC(=O)[C@H](CCCNC(=N)N)NC(=O)[C@@H](NC(=O)[C@H](Cc1c[nH]cn1)NC(=O)[C@H](CCC(N)=O)NC(=O)CNC(=O)[C@@H](NC(=O)[C@H](CCCNC(=N)N)NC(=O)[C@H](CCC(=O)O)NC(=O)[C@@H](NC(=O)[C@H](CCCCN)NC(=O)[C@H](CCCCN)NC(=O)CNC(=O)[C@H](CC(C)C)NC(=O)[C@H](CCCCN)NC(=O)[C@H](CCCNC(=N)N)NC(=O)[C@H](CC(C)C)NC(=O)[C@H](Cc1c[nH]c2ccccc12)NC(=O)CN)[C@@H](C)CC)[C@@H](C)CC)[C@@H](C)O)[C@@H](C)CC)C(=O)N[C@@H](C)C(=O)N[C@@H](CCC(N)=O)C(=O)N[C@@H](CCC(N)=O)C(=O)N[C@@H](C)C(=O)N[C@@H](C)C(=O)N[C@@H](CC(N)=O)C(=O)N[C@H](C(=O)N[C@@H](C)C(=O)N[C@@H](C)C(=O)N[C@H](C(=O)N[C@@H](C)C(=O)N[C@@H](CCCNC(=N)N)C(=O)NCC(N)=O)[C@@H](C)O)C(C)C [CecBG] | 128 | – | 8 | – | 32 | – | – |
